Test results as given in patent US8609715B2, “Heteroarylcarboxylic acid ester derivative” (Ajinomoto Co., Inc., priority 2009, dated 2013).

Sequences of proteins named here, by UniProt entry; tags and fusion partners are left off. A change or cut given only in a name is not applied to a line headed by its entry.
UniProt P98073: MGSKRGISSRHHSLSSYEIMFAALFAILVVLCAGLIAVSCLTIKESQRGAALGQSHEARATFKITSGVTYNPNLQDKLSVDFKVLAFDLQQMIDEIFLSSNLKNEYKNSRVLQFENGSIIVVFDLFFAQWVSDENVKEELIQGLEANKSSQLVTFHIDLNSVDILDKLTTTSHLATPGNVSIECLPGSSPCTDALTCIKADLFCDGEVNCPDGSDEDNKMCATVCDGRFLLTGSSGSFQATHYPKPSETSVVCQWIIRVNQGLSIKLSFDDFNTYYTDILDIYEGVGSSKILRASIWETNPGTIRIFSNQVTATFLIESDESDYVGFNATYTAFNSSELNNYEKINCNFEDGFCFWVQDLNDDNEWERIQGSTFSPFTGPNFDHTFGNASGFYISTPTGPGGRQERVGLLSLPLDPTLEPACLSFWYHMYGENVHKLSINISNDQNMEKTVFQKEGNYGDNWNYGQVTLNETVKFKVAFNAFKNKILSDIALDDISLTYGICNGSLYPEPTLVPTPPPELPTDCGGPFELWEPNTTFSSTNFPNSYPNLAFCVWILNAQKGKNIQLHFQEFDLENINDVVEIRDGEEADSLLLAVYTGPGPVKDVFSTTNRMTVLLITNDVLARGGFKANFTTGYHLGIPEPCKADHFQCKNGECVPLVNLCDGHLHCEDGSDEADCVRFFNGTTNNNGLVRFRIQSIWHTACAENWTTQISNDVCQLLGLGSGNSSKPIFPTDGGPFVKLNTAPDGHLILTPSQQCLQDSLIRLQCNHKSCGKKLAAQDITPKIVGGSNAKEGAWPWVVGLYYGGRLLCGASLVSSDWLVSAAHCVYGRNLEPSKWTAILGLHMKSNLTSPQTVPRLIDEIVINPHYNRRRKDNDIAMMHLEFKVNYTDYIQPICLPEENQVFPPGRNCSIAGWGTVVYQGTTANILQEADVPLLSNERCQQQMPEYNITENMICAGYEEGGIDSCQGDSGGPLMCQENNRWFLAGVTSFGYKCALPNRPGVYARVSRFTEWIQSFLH

Target: recombinant human enteropeptidase (Homo sapiens (Human), UniProt P98073)
Test: Measurement of enteropeptidase inhibitory activity
Type: biochemical
Conditions: Dixon plot
Protocol: Measurement of Enteropeptidase Inhibitory Activity
Using a 96 well plate (#3915, Costar), a test compound (25 μL), 400 mM Tris-HCl buffer (pH 8.0, 25 μL) and 0.5 mg/mL fluorescence enzyme substrate (Gly-Asp-Asp-Asp-Asp-Lys-β-Naphtylamide, 25 μL) were mixed, and recombinant human enteropeptidase (R&D Systems, Inc., 25 μL) was added. Using a fluorescence plate reader fmax (Molecular Devices, Inc.), the reaction rate was measured from the time-course changes at excitation wavelength 320 nm and fluorescence wavelength 405 nm. The Ki value was calculated from the concentration of the test compound, reciprocal of reaction rate, and Km value of the enzyme substrate, and by using Dixon plot.

Ki: 1.36 nM
SMILES: CC(Cc1ccc(C(=O)Oc2ccc(C(=N)N)cc2)s1)C(=O)N[C@@H](CC(=O)O)C(=O)O (stereo partly shown) [Compound B-18]
